## Ab-95 light chain CDR variants: yeast mating affinities

The target is the same throughout: PDVDLGDISGINAS, from the HR2 region of SARS-CoV-2 spike.

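The library (AAYL52) carries one to three amino acid substitutions per variant, with no insertions or deletions. Affinity was read by AlphaSeq, a pooled yeast mating assay with surface-displayed partners. Pairs that bind mate more often; barcode pairs of the diploids are counted by sequencing. The ratio of observed to expected reads was calibrated, replicate by replicate, on BCL2-family standards whose Kd was known from biolayer interferometry. Mating was done three times.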

Each scFv is VH, three GGGGS repeats, VL, as in the parent Ab-95, and differs from it in the CDRs of the light chain only.
VH: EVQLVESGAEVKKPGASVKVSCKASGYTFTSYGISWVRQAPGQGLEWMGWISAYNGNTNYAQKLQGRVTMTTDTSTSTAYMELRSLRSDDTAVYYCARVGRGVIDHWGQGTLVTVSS
VL: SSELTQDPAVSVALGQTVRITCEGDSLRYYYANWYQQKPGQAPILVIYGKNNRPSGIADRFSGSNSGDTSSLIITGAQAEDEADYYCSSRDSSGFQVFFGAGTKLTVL

The parent's light chain CDRs are EGDSLRYYYAN, GKNNRPS, SSRDSSGFQVF; each variant's own CDRs replace them letter for letter.
Numbers give log10(Kd / nM), so 0 is 1 nM and 3 is 1 µM. Smaller is tighter.
Replicates are averaged; those with no signal do not enter the mean.
An entry "n.d." has no value in the source: the pair was not observed among the diploids in that replicate. This suggests poor binding but is not conclusive.
As a blank, each scFv also met three strains without target: over library AAYL52, 28% of these pairings were detected, typically at 3.91 and seldom below 2.90. For each scFv, signals with the empty controls are counted beside the result, with their mean in brackets.
Parent in this assay: reference entry 2.31, copy in this library 2.25.

| CDR-L1 | CDR-L2 | CDR-L3 | log10 Kd (nM) by replicate | mean log10 Kd (nM) | empty controls |
|---|---|---|---|---|---|
| EGDSLRYYYAN | GKNNRPS | STRDESGFQVA | 3.52 / 3.73 / n.d. | 3.62 | 6 of 9 (4.42) |
| EGDSLRYYYAN | GKNERPS | RCRDSSGFQVF | n.d. / n.d. / n.d. | n.d. | 1 of 9 (2.73) |
| EGDSLRFYYAN | GKNNRPS | SNRDSSFFQVF | 2.80 / 2.61 / 3.48 | 2.96 | 0 of 9 |
| EGDSLRYYYAN | GKNARPS | SSTDSSWFQVF | 2.21 / 2.68 / 2.17 | 2.36 | 0 of 9 |
| EGDSLRYLYAN | GQNNRPS | SSTDSSGFQVF | 3.16 / n.d. / n.d. | 3.16 | 1 of 9 (3.53) |
| EGDSLRYYYAN | GKNNRPS | SSNQASGFQVF | 1.10 / 1.16 / 1.08 | 1.11 | 1 of 9 (2.38) |
| EGDSLRVYIAN | GKNKRPS | SSRDSSGFQVF | 3.09 / n.d. / n.d. | 3.09 | 3 of 9 (3.60) |
| EGDSWRYYLAN | GKNNRPS | SSRDSNGFQVF | n.d. / n.d. / n.d. | n.d. | 0 of 9 |
| EGDSLRYYDAN | GKNNRPS | SYRDSDGFQVF | 1.30 / 1.26 / 0.77 | 1.11 | 4 of 9 (4.03) |
| EGDSLRYYYAN | GKNNREI | SSMDSSGFQVF | n.d. / n.d. / n.d. | n.d. | 3 of 9 (3.77) |
| EGDSLRYYYAN | GKNNRPS | ASNDSSGFQVF | 3.77 / 3.63 / 3.23 | 3.54 | 7 of 9 (3.92) |
| EGDSLRYCYAN | GKEWRPS | SSRDSSGFQVF | n.d. / 3.40 / n.d. | 3.40 | 1 of 9 (3.77) |
| ENDSLRYYYDN | GKNLRPS | SSRDSSGFQVF | n.d. / n.d. / 3.81 | 3.81 | 2 of 9 (4.00) |
| EHDSLRYYYAN | GKNNRPS | WSRDSSGVQVF | 4.21 / 4.37 / n.d. | 4.29 | 5 of 9 (4.17) |
| EGDSLHYKYAN | GKNNRPI | SSRDSSGFQVF | 1.42 / 1.41 / 0.97 | 1.27 | 2 of 9 (4.07) |
| EGDSGRYYYAN | GKNNRPS | SSCDSSGFSVF | n.d. / 3.49 / n.d. | 3.49 | 1 of 9 (3.56) |
| EGDSLREYYAN | GKNNRPS | SSRDSGIFQVF | 3.19 / 3.32 / 2.77 | 3.09 | 0 of 9 |
| EGDSLRYYMAN | GKNNRPC | SSRDSSGFLVF | 3.02 / 2.77 / 3.28 | 3.02 | 1 of 9 (3.52) |
| EGDFLRYYYAN | GKNVKPS | SSRDSSGFQVF | 2.81 / 2.73 / 2.09 | 2.54 | 4 of 9 (3.81) |
| EGESLRYYYVN | GHNNRPS | SSRDSSGFQVF | 2.74 / 2.30 / 3.07 | 2.70 | 2 of 9 (4.56) |
| PGDMLRYYYAN | GKNNRVS | SSRDSSGFQVF | n.d. / 3.25 / n.d. | 3.25 | 4 of 9 (4.31) |
| EGDSLRYYYAN | GKNCHPS | SSRDSSGDQVF | 3.94 / 3.85 / 3.84 | 3.88 | 3 of 9 (3.91) |
| EGDSLRYYYAN | GKNNRPW | SSRDSWGFQVF | 4.42 / n.d. / n.d. | 4.42 | 2 of 9 (3.80) |
| EGDSLRNDYAN | GKNNRPS | ASRDSSGFQVF | 1.98 / 2.18 / 1.90 | 2.02 | 1 of 9 (4.15) |
| EGDSMRYYYAN | GKNNSPS | SSRDSSGWQVF | 3.13 / 3.47 / n.d. | 3.30 | 5 of 9 (3.97) |
| EGHQLRYYYAN | GKNNRPS | SSRDSSGEQVF | 3.91 / 3.78 / n.d. | 3.84 | 1 of 9 (2.96) |
| EGDSLRYYYAN | GKNNRYS | SSRDQSGFRVF | n.d. / 3.32 / n.d. | 3.32 | 2 of 9 (3.86) |
| EGQSLRYYYAN | GKNNRPS | SSRWSSGAQVF | 2.69 / 2.68 / 2.11 | 2.49 | 5 of 9 (3.83) |
| EGDSLCKYYAN | GKNNRPS | LSRDSSGFQVF | 3.50 / 3.95 / 2.82 | 3.42 | 4 of 9 (4.43) |
| EGDSLRYYMAN | GKNNRTS | SSRDSSGFAVF | 2.84 / 2.75 / 2.83 | 2.81 | 4 of 9 (4.45) |
| YGDYLRYYYAN | GKNNRPS | SSRDSSGFQGF | n.d. / 3.69 / n.d. | 3.69 | 1 of 9 (4.10) |
| EGVSLRYLYAN | GKNNRPS | SSRDSSGAQVF | 3.23 / 3.08 / 3.00 | 3.10 | 1 of 9 (4.05) |

Extract of 4 entries:

| CDR-L1 | CDR-L2 | CDR-L3 | log10 Kd (nM) by replicate | mean log10 Kd (nM) | empty controls |
|---|---|---|---|---|---|
| YGDYLRYYYAN | GKNNRPS | SSRDSSGFQGF | n.d. / 3.69 / n.d. | 3.69 | 1 of 9 (4.10) |
| EGDFLRYYYAN | GKNVKPS | SSRDSSGFQVF | 2.81 / 2.73 / 2.09 | 2.54 | 4 of 9 (3.81) |
| EGDSWRYYLAN | GKNNRPS | SSRDSNGFQVF | n.d. / n.d. / n.d. | n.d. | 0 of 9 |
| EGDSLRYYMAN | GKNNRPC | SSRDSSGFLVF | 3.02 / 2.77 / 3.28 | 3.02 | 1 of 9 (3.52) |

The measurements come from Engelhart et al. 2022 (doi:10.1038/s41597-022-01779-4) through the FLAb antibody collection.